Experimental data published in patent publication US10053456B2, “Cyclopropanamine compound and use thereof” (Takeda Pharmaceutical Company Limited, priority 2014, dated 2018).
Counter-ions that a name gives are not always drawn.

System: Gad1 H3K4me2 level in rat primary culture neurons
Experiment: Gad1 H3K4 methylation induction activity in rat primary culture neurons (ChIP, quantitative PCR)
Type: cell-based
Conditions: Neuron, 72 h, read-out: Gad1 H3K4me2 induction activity (%)

Row | Compound | activity at 10 µM
1 | Cc1nnc(NC(=O)c2cc([C@@H]3C[C@H]3NCC3CCOCC3)c(C)s2)s1 [Example 97, 5-methyl-N-(5-methyl-1,3,4-thiadiazol-2-yl)-4-((1S,2R)-2-((tetrahydro-2H-pyran-4-ylmethyl)amino)cyclopropyl)thiophene-2-carboxamide hydrochloride] | 184%
2 | Cc1sc(C(=O)Nc2cnn(C)c2)cc1[C@@H]1C[C@H]1NC1CCC1 [Example 123, 4-((1S,2R)-2-(cyclobutylamino)cyclopropyl)-5-methyl-N-(1-methyl-1H-pyrazol-4-yl)thiophene-2-carboxamide hydrochloride] | 143%
3 | O=C(NC1CCOCC1)c1csc([C@@H]2C[C@H]2NCC2CC2)c1 [Example 71, 5-((1R,2R)-2-((cyclopropylmethyl)amino)cyclopropyl)-N-(tetrahydro-2H-pyran-4-yl)thiophene-3-carboxamide hydrochloride] | 182%
4 | Cc1nnc(NC(=O)c2cc([C@@H]3C[C@H]3NCC3CC3)cs2)s1 [Example 82, 4-((1S,2R)-2-((cyclopropylmethyl)amino)cyclopropyl)-N-(5-methyl-1,3,4-thiadiazol-2-yl)thiophene-2-carboxamide dihydrochloride] | 115%
5 | Cc1nnc(NC(=O)c2cc([C@@H]3C[C@H]3NC3CCC3)c(C)s2)s1 [Example 99, 4-((1S,2R)-2-(cyclobutylamino)cyclopropyl)-5-methyl-N-(5-methyl-1,3,4-thiadiazol-2-yl)thiophene-2-carboxamide hydrochloride] | 146%
